# Binding of CDR-mutated scFvs to a peptide of the spike HR2 region

Target peptide (SARS-CoV-2 spike, HR2 region): PDVDLGDISGINAS

Ab-14 is the parent antibody, in scFv form: VH, then a (GGGGS)3 linker, then VL. The heavy chain is unchanged in all variants.
VH: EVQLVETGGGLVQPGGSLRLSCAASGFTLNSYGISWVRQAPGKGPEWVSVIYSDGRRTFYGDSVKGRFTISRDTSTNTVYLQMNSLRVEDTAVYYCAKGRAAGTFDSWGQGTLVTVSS
VL: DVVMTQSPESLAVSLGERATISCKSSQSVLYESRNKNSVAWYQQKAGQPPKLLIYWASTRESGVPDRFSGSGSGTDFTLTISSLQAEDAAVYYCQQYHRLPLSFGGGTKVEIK

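Phage display of a naive human antibody library on the peptide gave the parent. These sequences belong to a second round, designed from the earlier measurements on random variants of the parent. Their group label is 14L_GP_Gibbs (GP: Gaussian process model; Gibbs: Gibbs sampling; a sequence that several methods proposed may carry one label only). In AlphaSeq, yeast of one mating type display the scFv and yeast of the other type display the target. Binding brings cells together so that they mate, and sequencing counts the barcode pairs among the diploids. A regression on co-assayed BCL2-family reference pairs converts the normalised counts of each replicate to an apparent Kd. Each pool was mated in six replicate cultures.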

Variants are written as CDR1, CDR2 and CDR3 of the light chain (limits as in the source). Parent: KSSQSVLYESRNKNSVA, WASTRES, QQYHRLPLS. Affinities are written as log10 Kd with Kd in nM; a lower number is a better binder. A pair that was not seen in that replicate is written "ND"; this usually means weak binding, but a binder can also be missed. A sequence measured in both rounds can read differently, since the two assays cover different ranges.

CDR-L1 | CDR-L2 | CDR-L3 | replicates, log10 nM | empty controls
KLSFSVMLESRNKNAVA | SASTRMS | QDYHRLPLS | 0.63 / 0.56 / 0.69 / 0.51 / 0.65 / 0.88 | 1/18 (3.00)
KVSQLNLYESRNANNVA | NGSLRES | QQYHRLPLS | 0.02 / -0.18 / -0.06 / -0.26 / -0.23 / -0.03 | 1/18 (4.81)
KMMQSQLYEDRAKNAVA | HASQRES | QQYHRLPLS | 0.29 / 0.13 / 0.01 / -0.04 / 0.03 / 0.18 | 1/18 (2.92)
KLSQSELYMDRNANSVA | NASTRMS | QQYHRLPLS | -0.13 / -0.14 / -0.42 / -0.48 / -0.27 / -0.30 | 1/18 (3.19)
HLSQSGLYGMRNKNSVA | QASQRLQ | QQYHRLPLS | 0.49 / 0.39 / 0.32 / 0.48 / 0.78 / 0.57 | 0/18
KCKQSSDYESRNFNSVA | NASTREV | QQYHRLPLS | 0.20 / 0.30 / 0.03 / 0.15 / 0.10 / 0.29 | 1/18 (3.68)
KQSQSDEGEQRNKNSVA | EASTRCM | QQYHRLPLS | 0.62 / 0.02 / 0.03 / 0.19 / 0.42 / 0.83 | 0/18
KFSQSELYGERDGNSVA | NASQRLS | QQYHRLPLS | 1.06 / 0.85 / 0.44 / 0.47 / 0.54 / 0.58 | 2/18 (2.85)
KLSGSVLPESRNKNSVA | SATTRMS | QQYHRLPLS | -0.27 / -0.28 / -0.37 / -0.35 / -0.34 / 0.02 | 2/18 (2.37)
KQQQSGLGEERNFNSVA | HASTRIS | QQYHRLPLS | 0.99 / 0.66 / 0.49 / 0.54 / 0.63 / 0.93 | 1/18 (1.93)
KFFQSWLYEQRQVNSVA | NASQRLL | QQYHRLPLS | 0.54 / 0.11 / 0.27 / -0.05 / 0.05 / 0.15 | 0/18
KLMYLVLYESRNKNSVA | NASTREQ | QQYHRLPLS | 1.40 / 1.58 / 1.10 / 1.35 / 2.16 / 2.35 | 0/18
KLPNSSLYESRNKNQVA | SASTREM | QQYHRLPLS | 1.28 / 1.45 / 0.96 / ND / 0.90 / 2.36 | 0/18
KVDQLVDMESRNKNAVA | SASTRES | QQYHRLPLS | 0.70 / 0.33 / 0.35 / 0.39 / 0.58 / 0.50 | 1/18 (3.95)
KVSPSWLGEDRNCNSVA | QASCRES | QQYHRLPLS | 1.74 / 0.81 / 0.49 / 0.34 / 0.85 / 1.11 | 0/18
KLRFSVMGESRNKNSVA | SASTREW | QQYHRLPLS | 0.34 / 0.28 / 0.01 / 0.03 / 0.16 / 0.32 | 0/18
KLMQEMLYESRLANSVA | NASQRLE | QQYHRLPLS | 0.69 / 1.12 / 1.10 / 0.60 / 0.45 / 0.87 | 1/18 (2.03)
KAQQSQLYESRNQNSVA | NASQRLS | QQYHRLPLS | -0.02 / -0.08 / -0.26 / -0.10 / -0.24 / -0.15 | 2/18 (2.61)
KLSQSVGYESRLANNVA | NASTRLE | QQYHRLPLS | 0.45 / 0.18 / -0.14 / 0.40 / 0.29 / 0.25 | 1/18 (1.79)
KLQQSVGYESRNQNAVA | QASTREE | QQYHRLPLS | 0.01 / 0.04 / -0.08 / -0.19 / -0.05 / 0.06 | 3/18 (2.65)
KLQQSWEYESRNKNNVA | MGSTRED | QQYHRLPLS | 0.32 / -0.05 / -0.46 / 0.33 / -0.10 / 0.07 | 0/18
KLSQSDLYESRMSNSVA | MASTRMV | QQYHRLPLS | 0.34 / -0.06 / 0.18 / 0.28 / -0.08 / 0.41 | 0/18
KLSQSWMQEERNKNSVA | QASTREQ | QQYHRLPLS | 0.15 / 0.06 / 0.01 / -0.14 / -0.05 / 0.21 | 3/18 (3.58)
KLECSQEYESRNTNSVA | GASTRES | QQYHRLPLS | -0.06 / -0.03 / -0.18 / -0.41 / -0.11 / -0.11 | 0/18
KLDMSDLMESRNWNAVA | SASTREI | QQYHRLPLS | ND / 1.47 / ND / 1.07 / ND / 2.02 | 0/18
KMSQSDLMEMRNMNSVA | NASTRQM | QQYHRLPLS | 0.60 / 0.43 / 0.59 / 0.34 / 0.57 / 0.81 | 1/18 (2.46)
KVEFSVLYESRNKNSVA | QASTREK | QQYHRLPLS | 0.35 / 0.23 / 0.36 / 0.37 / 0.70 / 0.11 | 0/18
KMSQSWLGEDWNKNSVA | EASQRES | QQYHRLPLS | 0.40 / 0.46 / 0.33 / 0.18 / 0.29 / 0.50 | 0/18
KVLQEMLYESRMANSVA | NASQRES | QQYHRLPLS | 0.42 / 0.59 / 0.25 / 0.53 / 0.48 / 0.76 | 2/18 (2.36)
KLSGSMLYQSRNKNAVA | EASQREQ | QQYHRLPLS | -0.23 / -0.48 / -0.52 / -0.54 / -0.59 / -0.43 | 1/18 (1.85)
KMAQGWEYESRNKNNVA | NASQRES | QQYHRLPLS | 0.00 / -0.31 / -0.14 / -0.20 / -0.18 / -0.24 | 0/18
KLSWSVEYEDRLSNSVA | DASQREW | QQYHRLPLS | 0.62 / 0.34 / 0.29 / 0.21 / 0.29 / 0.71 | 1/18 (2.60)
KIYQSGPYESRNKNSVA | SASTRSS | QQYHRLPLS | 0.81 / 0.61 / 0.61 / 0.71 / 0.35 / 0.57 | 1/18 (2.11)
KVFPSELGESRNKMSVA | HASTRES | QQYHRLPLS | 0.66 / 0.91 / 0.30 / 0.37 / 0.08 / 0.74 | 0/18
KVLQEMLYESRMANSVA | NASQREE | QQYHRLPLS | 0.23 / 0.55 / 0.63 / 0.18 / 0.53 / 0.29 | 0/18
KQQFSSGMSQRNKNSVA | SASTRCS | QQYHRLPLS | ND / ND / ND / ND / 2.13 / ND | 0/18
KLSQSVLYGQRNKNSVA | EASTRMS | QQYHRLPLY | -0.01 / -0.06 / -0.05 / -0.24 / -0.12 / -0.04 | 4/18 (3.12)
HLSQSVGGESRNKNSVA | EAQTREQ | QQYHRLPLS | -0.11 / -0.12 / -0.13 / -0.36 / -0.13 / -0.28 | 2/18 (2.29)
KVSQSVEYEDRNKNSVA | MASQRNS | QQYHRLPLS | ND / ND / ND / ND / ND / ND | 0/18

The opening 5 entries, copied out:

CDR-L1 | CDR-L2 | CDR-L3 | replicates, log10 nM | empty controls
KLSFSVMLESRNKNAVA | SASTRMS | QDYHRLPLS | 0.63 / 0.56 / 0.69 / 0.51 / 0.65 / 0.88 | 1/18 (3.00)
KVSQLNLYESRNANNVA | NGSLRES | QQYHRLPLS | 0.02 / -0.18 / -0.06 / -0.26 / -0.23 / -0.03 | 1/18 (4.81)
KMMQSQLYEDRAKNAVA | HASQRES | QQYHRLPLS | 0.29 / 0.13 / 0.01 / -0.04 / 0.03 / 0.18 | 1/18 (2.92)
KLSQSELYMDRNANSVA | NASTRMS | QQYHRLPLS | -0.13 / -0.14 / -0.42 / -0.48 / -0.27 / -0.30 | 1/18 (3.19)
HLSQSGLYGMRNKNSVA | QASQRLQ | QQYHRLPLS | 0.49 / 0.39 / 0.32 / 0.48 / 0.78 / 0.57 | 0/18

In the paper, a design with two or fewer of six values counts as a poor binder. Empty control strains, which show no peptide, gave a signal in 4% of pairings with all light chain designs; the median was 2.64 and 95% of these signals were weaker than 1.59. No background was subtracted. For each scFv, signals with the empty controls are counted beside the result, with their mean in brackets.

The measurements come from Li et al. 2023 (doi:10.1038/s41467-023-39022-2) through the FLAb antibody collection.